Reference: patent US12419874B2, “GLP-1R agonist compound and use thereof” (Chongqing Pharmaceutical Research Institute Co., Ltd., priority 2024, dated 2025)

What was measured:
[1] = In vivo pharmacokinetics in Macaca fascicularis, intravenous; conditions: male Macaca fascicularis, 0.12 mg/kg
[2] = tested on: GLP-1R humanized C57BL/6N mice fed with high-fat diets; experiment: In vivo efficacy on body weight and food intake in high-fat diet hGLP-1R mice; conditions: gavage once daily; for Change Rate of Body Weight on Day 27: corrected by Vehicle

Compound: Cc1cc(-n2nc3c(c2-n2ccn(-c4ccc5c(cnn5C)c4F)c2=O)[C@H](C)N(C(=O)c2cc4cc([C@H]5CCOC(C)(C)C5)ccc4n2[C@@]2(c4noc(=O)[nH]4)C[C@@H]2C)CC3)cc(C)c1F
- Cl [1]: 10.5 mL/min/kg
- Cumulative Food Intake on Day 27 ([2]; 0.3 mpk): 75.41 ± 7.20 g
- Change Rate of Body Weight on Day 27 ([2]; 0.3 mpk): −11.89 ± 1.27%
- Cumulative Food Intake on Day 27 ([2]; 1.5 mpk): 74.78 ± 3.64 g
- Change Rate of Body Weight on Day 27 ([2]; 1.5 mpk): −13.71 ± 1.72%
